Experimental data published in PMC7655571, “Acetylcholinesterase inhibition in electric eel and human donor blood: an in vitro approach to investigate interspecies differences and human variability in toxicodynamics” (Archives of Toxicology, 2020).

Protein sequences, listed by entry. Tags and fused reporters are not part of them. Residues count along the entry.
UniProt O42275, 24-633: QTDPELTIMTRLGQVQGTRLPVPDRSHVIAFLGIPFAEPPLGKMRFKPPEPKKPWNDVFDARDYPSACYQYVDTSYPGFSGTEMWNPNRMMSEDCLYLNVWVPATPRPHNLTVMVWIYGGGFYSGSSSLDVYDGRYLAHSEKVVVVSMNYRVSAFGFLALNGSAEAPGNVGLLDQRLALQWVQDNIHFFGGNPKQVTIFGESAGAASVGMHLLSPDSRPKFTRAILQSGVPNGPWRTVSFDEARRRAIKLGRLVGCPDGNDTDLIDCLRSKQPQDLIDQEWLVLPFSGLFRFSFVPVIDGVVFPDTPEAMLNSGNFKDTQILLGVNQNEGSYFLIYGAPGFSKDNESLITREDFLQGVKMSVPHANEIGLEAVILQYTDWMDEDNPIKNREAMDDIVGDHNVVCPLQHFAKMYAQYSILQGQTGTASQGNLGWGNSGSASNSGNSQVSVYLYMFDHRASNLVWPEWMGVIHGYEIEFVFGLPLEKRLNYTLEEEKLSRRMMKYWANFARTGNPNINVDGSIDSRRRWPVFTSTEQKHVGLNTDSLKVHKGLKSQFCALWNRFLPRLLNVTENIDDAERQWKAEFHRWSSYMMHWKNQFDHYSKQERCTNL

Target: T1, Electrophorus electricus AChE (Electrophorus electricus, UniProt O42275)
T1 construct: purchased Sigma-Aldrich C2888
Experiment: AChE inhibition, electric eel enzyme (Ellman method)
Format: biochemical
Conditions: 30 min exposure

For `CCOP(=O)(OCC)Oc1nc(Cl)c(Cl)cc1Cl` [CPO, Chlorpyrifos-oxon], which IC50 (IC50 Electric eel, room temperature, 3–4 independent experiments) is on record?
Its IC50 is 30 nM.

What about the IC50 (IC50 electric eel) of the same molecule?
Its IC50 is 27 nM.
